scFv variants of Ab-14 (light chain) against a SARS-CoV-2 spike peptide

Binding partner: SARS-CoV-2 spike HR2 peptide, sequence PDVDLGDISGINAS.

Parent scFv Ab-14: VH joined to VL by a (GGGGS)3 linker. Changes lie in the light chain CDRs alone.
VH: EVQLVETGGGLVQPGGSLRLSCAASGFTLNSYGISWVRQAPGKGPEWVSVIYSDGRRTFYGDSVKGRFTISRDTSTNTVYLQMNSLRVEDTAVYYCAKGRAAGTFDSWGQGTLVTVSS
VL: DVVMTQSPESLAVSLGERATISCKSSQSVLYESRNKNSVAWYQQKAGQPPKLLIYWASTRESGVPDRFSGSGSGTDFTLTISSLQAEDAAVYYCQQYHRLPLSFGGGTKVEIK

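The starting antibody came from a phage panning campaign against this peptide. The variants were designed computationally from a first round of random CDR variants and then made and measured. Several design methods are mixed in this list. The assay is AlphaSeq: two haploid yeast populations carry antibody and antigen on their surface. The frequency of each diploid, read from paired DNA barcodes, reflects how well the two displayed proteins bind. Each replicate has its own calibration line, from reference interactions of the BCL2 family. Each pool was mated in six replicate cultures.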

Variants are written as CDR1, CDR2 and CDR3 of the light chain (limits as in the source). Parent: KSSQSVLYESRNKNSVA, WASTRES, QQYHRLPLS.
Kd is apparent (estimated from mating counts) and averaged on the log scale over replicates with a signal. Smaller is tighter.
"nd" marks a missing value. The strain was present, yet no cells mated with the target were sequenced in any replicate, which points to weak or no binding.
Empty control strains, which show no peptide, gave a signal in 4% of pairings with all light chain designs; the median was 430 nM and 95% of these signals were weaker than 38 nM. No background was subtracted.
The authors' rule: three or more of the six replicates give a measured affinity, fewer mean a poor binder.
Of ten entries with the parent sequence, four were seen in most replicates (averages 2.2 nM to 240 nM), three in one and three in none, so single entries are noisy.
The range of this assay differs from that of the first round, and the authors advise against merging the two.

CDR-L1,CDR-L2,CDR-L3,apparent Kd,seen in
TLAQGIYEPVRKSNNVA,EASHVGD,QQYERLPLE,9.9 nM,6/6
ALSQSVLYESDNKNSVA,WASQRGS,QQYHRLPLS,10 nM,6/6
KISQSQLYEDRNKKSVA,NASTRCS,QQYHRLPLS,990 pM,6/6
KIGGTLNQLMHKKNNVA,DLVMREN,QQYHRLPLS,1.6 nM,6/6
KFSQSVLYESRTKNSVA,NAVTRET,QQYHRLPLW,310 pM,6/6
KLSSVTGTEKVHGNNVA,EMETRER,QQYNRLPLA,1.5 nM,6/6
KLSASQLYESRASNAVA,QASTRMD,QQYHRLPLS,640 pM,6/6
KLSQSWLYESRNKNSVA,NASTRES,QSYHRLPLS,2.1 nM,6/6
KLSQSHLYESRNKNSVA,NASTRMS,QQYHRLPLS,950 pM,6/6
KLEDQMQTSIASDNSVA,DTNMGHE,QQYGRLPLV,4.8 nM,6/6
KLQQSTLYESRNQNSVA,NASTRES,QQYHRLPLS,6.3 nM,6/6
TISQLYNMGTFAINSVA,QASIRNS,QQYDRLPLI,2.5 nM,6/6
KSSQSGLYESRNKNSVA,NASTRES,QQYHRLPLS,1.9 nM,6/6
KSSQSVLYESFNKNSVA,TRSTRES,QQYHRLPLS,nd,0/6
KLSFSVLYESRNKNSVA,EASTRES,QQYHRLPLS,900 pM,6/6
KSSQSVLDESSNKNSVA,WCSTRES,QQYHRLPLD,67 nM,3/6
KLYEMVASTMMNIRNVA,DNSTREA,QQYHRLPLS,9.2 nM,5/6
KSSQSVLAERRNKNSVA,WASTREI,QQYHRLPLS,200 nM,1/6
KLQQSVLYESRNKNSVA,EASTRMS,QQYHRLPLS,960 pM,6/6
QLSHYKHENMGKWANVA,EMTIREK,QQYAHLPLN,nd,0/6
KLSGLMASSKFQKDNVA,ENNTRED,QQYDRLPLS,360 nM,6/6
KLPQSQEYESRWKNSVA,EASTREL,QQYHRLPLS,2.2 nM,6/6
KVSQSELYESRNKNSVA,QASQRES,QQYHRLPLS,740 pM,6/6
NLMSHQSEIDVWKYSIA,EASIRLS,QQYFRLPLA,9.3 nM,1/6
KVKQSWLYESRMQNNVA,NASLRES,QQYHRLPLS,9.8 nM,6/6
KVSQSVLYESRNKNSVA,NASYRES,QQYHRLPLS,1.2 nM,6/6
KLSQVTHSESFNKNSIA,EMVTREV,QQYDRLPLS,9.7 nM,6/6

The remaining entries, values ahead:

apparent Kd,seen in,CDR-L1,CDR-L2,CDR-L3
2.1 nM,6/6,KIYASTMLESHDKNSIA,DLTTRGN,QQYHRLPLS
31 nM,6/6,HMSDSIEKMASIERNIA,DETTTAM,QQYYRLPLS
4.5 nM,6/6,KAQQSVGYGERNSNSVA,EASTRES,QQYHRLPLS
3.9 nM,6/6,KLQQSVLYESRNKNSVA,HASTRMS,QQYHRLPLS
110 nM,4/6,KSSQSVCYESRNSNSVA,WASTRES,QQYHRLPLS
5.2 nM,6/6,HISQSFMMEQVWRNNIA,HQSTREQ,QQYDRLPFS
2.8 nM,6/6,KLSQSELYESRMKNNVA,NASTRES,QQYHRLPLS
110 nM,2/6,KSSQSVLYESRNKDMVA,GASTRES,QQYHRLPLS
590 pM,6/6,KVSQSMPYEERNKNSVA,NASQRMS,QQYHRLPLS
1.2 nM,6/6,KSQQSQLYESRNQNSVA,HASTRED,QQYHRLPLS
9.4 nM,4/6,RMDMAMPHAHSNINSIA,EDAIQAD,QQYDRLPLS
1.2 nM,6/6,KLDQLVDEKSRNKNAVA,EASTRES,QQYHRLPLS
560 pM,6/6,KVQQSWLYESRNKNSVA,NASTRES,QQYHRLPLS
780 pM,6/6,KVSQSVLYESRNKNSVA,EASTRSS,QQYHRLPLS
3.0 nM,6/6,LLQQDFYNERNQANAVA,DGNQLAS,QDYARLPLV
950 pM,6/6,SFSQSQLYESRTKNSVA,NASTRES,QQYHRLPLS
56 nM,5/6,KISMLKNQTFEESNNVA,EMVTREK,QQYNRLPLS
570 pM,6/6,KLSQSFLYESRNKNSVA,GASTRES,QDYHRLPLS
640 nM,6/6,KSSQSVLDESRFKNSVA,WASTRES,QQYHRLPLS
54 nM,6/6,QMTGQLFEQGNRSGPIA,HESMKET,QQYAQLPLT
1.2 nM,6/6,KLSQSTLYESRNKNSVA,NASTRMS,QQYHRLPLS
7.8 nM,6/6,NISESMYFQSFNKNNIA,EMSTRER,QHYHRLPLS
41 nM,6/6,KSSQSVLYTSRNQNSVA,FASTRES,QQYHRLPLS
nd,0/6,KLSVSNLFEQLEKNSIA,ENSTREK,QHYHRLPLS
7.4 nM,6/6,KLSQSVLFWGHAINSVA,EMATREN,QQYDRLPLS
nd,0/6,KSSQTVLYEMRNKNSVA,WASTRES,QQYHRNPLS
1.2 nM,6/6,QIYQAMHTLSQQKDNVA,DVNERGR,QQYFRLPLS

Top 3 of the variants detected in all replicates, tightest first:

| CDR-L1 | CDR-L2 | CDR-L3 | apparent Kd | seen in |
|---|---|---|---|---|
| KFSQSVLYESRTKNSVA | NAVTRET | QQYHRLPLW | 310 pM | 6/6 |
| KVQQSWLYESRNKNSVA | NASTRES | QQYHRLPLS | 560 pM | 6/6 |
| KLSQSFLYESRNKNSVA | GASTRES | QDYHRLPLS | 570 pM | 6/6 |

Reference: Li et al. 2023, doi:10.1038/s41467-023-39022-2. File: FLAb, binding data.